Biological target: TLN1 PTB (Homo sapiens, UniProt Q9Y490)
Type: binding

Chains of the proteins cited; added tags and fusions are not shown. Residues count along the entry.
UniProt Q9Y490, 309-401: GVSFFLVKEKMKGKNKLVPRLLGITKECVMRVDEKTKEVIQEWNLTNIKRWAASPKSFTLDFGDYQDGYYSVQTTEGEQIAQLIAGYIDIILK

| Substance | DMS-derived PSSM value, averaged over the two overlapping peptides |
| --- | --- |
| TDERSWVYSPLHYS(averaged) P10A (TDERSWVYSALHYS) | 0.0945 |
| TDERSWVYSPLHYS(averaged) P10D (TDERSWVYSDLHYS) | 0.01669 |
| TDERSWVYSPLHYS(averaged) P10E (TDERSWVYSELHYS) | 0.01979 |
| TDERSWVYSPLHYS(averaged) P10F (TDERSWVYSFLHYS) | 0.03064 |
| TDERSWVYSPLHYS(averaged) P10G (TDERSWVYSGLHYS) | 0.1174 |
| TDERSWVYSPLHYS(averaged) P10H (TDERSWVYSHLHYS) | 0.04019 |
| TDERSWVYSPLHYS(averaged) P10I (TDERSWVYSILHYS) | 0.03459 |
| TDERSWVYSPLHYS(averaged) P10K (TDERSWVYSKLHYS) | 0.08346 |
| TDERSWVYSPLHYS(averaged) P10L (TDERSWVYSLLHYS) | 0.1503 |
| TDERSWVYSPLHYS(averaged) P10M (TDERSWVYSMLHYS) | 0.02256 |
| TDERSWVYSPLHYS(averaged) P10N (TDERSWVYSNLHYS) | 0.06723 |
| TDERSWVYSPLHYS(averaged) P10P | 0.1035 |
| TDERSWVYSPLHYS(averaged) P10Q (TDERSWVYSQLHYS) | 0.08571 |
| TDERSWVYSPLHYS(averaged) P10R (TDERSWVYSRLHYS) | 0.04206 |
| TDERSWVYSPLHYS(averaged) P10S (TDERSWVYSSLHYS) | 0.01928 |
| TDERSWVYSPLHYS(averaged) P10T (TDERSWVYSTLHYS) | 0.03475 |
| TDERSWVYSPLHYS(averaged) P10V (TDERSWVYSVLHYS) | 0.01558 |
| TDERSWVYSPLHYS(averaged) P10W (TDERSWVYSWLHYS) | 0.01215 |
| TDERSWVYSPLHYS(averaged) P10Y (TDERSWVYSYLHYS) | 0.009631 |
| TDERSWVYSPLHYS(averaged) R4A (TDEASWVYSPLHYS) | 0.1847 |
| TDERSWVYSPLHYS(averaged) R4D (TDEDSWVYSPLHYS) | 0.1366 |
| TDERSWVYSPLHYS(averaged) R4E (TDEESWVYSPLHYS) | 0.01533 |
| TDERSWVYSPLHYS(averaged) R4F (TDEFSWVYSPLHYS) | 0.01214 |
| TDERSWVYSPLHYS(averaged) R4G (TDEGSWVYSPLHYS) | 0.02892 |
| TDERSWVYSPLHYS(averaged) R4H (TDEHSWVYSPLHYS) | 0.01226 |

| Substance | DMS-derived PSSM value, averaged over the two overlapping peptides |
| --- | --- |
| TDERSWVYSPLHYS(averaged) R4I (TDEISWVYSPLHYS) | 0.03787 |
| TDERSWVYSPLHYS(averaged) R4K (TDEKSWVYSPLHYS) | 0.006915 |
| TDERSWVYSPLHYS(averaged) R4L (TDELSWVYSPLHYS) | 0.06167 |
| TDERSWVYSPLHYS(averaged) R4M (TDEMSWVYSPLHYS) | 0.01622 |
| TDERSWVYSPLHYS(averaged) R4N (TDENSWVYSPLHYS) | 0.01483 |
| TDERSWVYSPLHYS(averaged) R4P (TDEPSWVYSPLHYS) | 0.01819 |
| TDERSWVYSPLHYS(averaged) R4Q (TDEQSWVYSPLHYS) | 0.03279 |
| TDERSWVYSPLHYS(averaged) R4R | 0.06987 |
| TDERSWVYSPLHYS(averaged) R4S (TDESSWVYSPLHYS) | 0.209 |
| TDERSWVYSPLHYS(averaged) R4T (TDETSWVYSPLHYS) | 0.01714 |
| TDERSWVYSPLHYS(averaged) R4V (TDEVSWVYSPLHYS) | 0.07212 |
| TDERSWVYSPLHYS(averaged) R4W (TDEWSWVYSPLHYS) | 0.01711 |
| TDERSWVYSPLHYS(averaged) R4Y (TDEYSWVYSPLHYS) | 0.03628 |
| TDERSWVYSPLHYS(averaged) S5A (TDERAWVYSPLHYS) | 0.03937 |
| TDERSWVYSPLHYS(averaged) S5D (TDERDWVYSPLHYS) | 0.07346 |
| TDERSWVYSPLHYS(averaged) S5E (TDEREWVYSPLHYS) | 0.04656 |
| TDERSWVYSPLHYS(averaged) S5F (TDERFWVYSPLHYS) | 0.00272 |
| TDERSWVYSPLHYS(averaged) S5G (TDERGWVYSPLHYS) | 0.00973 |
| TDERSWVYSPLHYS(averaged) S5H (TDERHWVYSPLHYS) | 0.03365 |
| TDERSWVYSPLHYS(averaged) S5I (TDERIWVYSPLHYS) | 0.2382 |
| TDERSWVYSPLHYS(averaged) S5K (TDERKWVYSPLHYS) | 0.03356 |
| TDERSWVYSPLHYS(averaged) S5L (TDERLWVYSPLHYS) | 0.06237 |
| TDERSWVYSPLHYS(averaged) S5M (TDERMWVYSPLHYS) | 0.1082 |
| TDERSWVYSPLHYS(averaged) S5N (TDERNWVYSPLHYS) | 0.006865 |
| TDERSWVYSPLHYS(averaged) S5P (TDERPWVYSPLHYS) | 0.02875 |

| Substance | DMS-derived PSSM value, averaged over the two overlapping peptides |
| --- | --- |
| TDERSWVYSPLHYS(averaged) S5Q (TDERQWVYSPLHYS) | 0.007151 |
| TDERSWVYSPLHYS(averaged) S5R (TDERRWVYSPLHYS) | 0.06127 |
| TDERSWVYSPLHYS(averaged) S5S | 0.06997 |
| TDERSWVYSPLHYS(averaged) S5T (TDERTWVYSPLHYS) | 0.1201 |
| TDERSWVYSPLHYS(averaged) S5V (TDERVWVYSPLHYS) | 0.01272 |
| TDERSWVYSPLHYS(averaged) S5W (TDERWWVYSPLHYS) | 0.02341 |
| TDERSWVYSPLHYS(averaged) S5Y (TDERYWVYSPLHYS) | 0.02194 |
| TDERSWVYSPLHYS(averaged) S9A (TDERSWVYAPLHYS) | 0.1265 |
| TDERSWVYSPLHYS(averaged) S9D (TDERSWVYDPLHYS) | 0.003142 |
| TDERSWVYSPLHYS(averaged) S9E (TDERSWVYEPLHYS) | 0.002898 |
| TDERSWVYSPLHYS(averaged) S9F (TDERSWVYFPLHYS) | 0.001144 |
| TDERSWVYSPLHYS(averaged) S9G (TDERSWVYGPLHYS) | 0.0002972 |
| TDERSWVYSPLHYS(averaged) S9H (TDERSWVYHPLHYS) | 0.006259 |
| TDERSWVYSPLHYS(averaged) S9I (TDERSWVYIPLHYS) | 0.0005722 |
| TDERSWVYSPLHYS(averaged) S9K (TDERSWVYKPLHYS) | 0 |
| TDERSWVYSPLHYS(averaged) S9L (TDERSWVYLPLHYS) | 0 |
| TDERSWVYSPLHYS(averaged) S9M (TDERSWVYMPLHYS) | 0.05805 |
| TDERSWVYSPLHYS(averaged) S9N (TDERSWVYNPLHYS) | 0.1108 |
| TDERSWVYSPLHYS(averaged) S9P (TDERSWVYPPLHYS) | 0.1107 |
| TDERSWVYSPLHYS(averaged) S9Q (TDERSWVYQPLHYS) | 0.00205 |
| TDERSWVYSPLHYS(averaged) S9R (TDERSWVYRPLHYS) | 0.0004416 |
| TDERSWVYSPLHYS(averaged) S9S | 0.4884 |
| TDERSWVYSPLHYS(averaged) S9T (TDERSWVYTPLHYS) | 0.03764 |
| TDERSWVYSPLHYS(averaged) S9V (TDERSWVYVPLHYS) | 0.02505 |
| TDERSWVYSPLHYS(averaged) S9W (TDERSWVYWPLHYS) | 0.0141 |

— publication PMC12102759 (Protein Science : A Publication of the Protein Society, 2025)
